Measurements published in ChEMBL document CHEMBL5726224, “Aminoester derivatives” (2017).

Sequences of proteins named here, by UniProt entry; tags and fusion partners are left off. A change or cut given only in a name is not applied to a line headed by its entry.
UniProt Q07343: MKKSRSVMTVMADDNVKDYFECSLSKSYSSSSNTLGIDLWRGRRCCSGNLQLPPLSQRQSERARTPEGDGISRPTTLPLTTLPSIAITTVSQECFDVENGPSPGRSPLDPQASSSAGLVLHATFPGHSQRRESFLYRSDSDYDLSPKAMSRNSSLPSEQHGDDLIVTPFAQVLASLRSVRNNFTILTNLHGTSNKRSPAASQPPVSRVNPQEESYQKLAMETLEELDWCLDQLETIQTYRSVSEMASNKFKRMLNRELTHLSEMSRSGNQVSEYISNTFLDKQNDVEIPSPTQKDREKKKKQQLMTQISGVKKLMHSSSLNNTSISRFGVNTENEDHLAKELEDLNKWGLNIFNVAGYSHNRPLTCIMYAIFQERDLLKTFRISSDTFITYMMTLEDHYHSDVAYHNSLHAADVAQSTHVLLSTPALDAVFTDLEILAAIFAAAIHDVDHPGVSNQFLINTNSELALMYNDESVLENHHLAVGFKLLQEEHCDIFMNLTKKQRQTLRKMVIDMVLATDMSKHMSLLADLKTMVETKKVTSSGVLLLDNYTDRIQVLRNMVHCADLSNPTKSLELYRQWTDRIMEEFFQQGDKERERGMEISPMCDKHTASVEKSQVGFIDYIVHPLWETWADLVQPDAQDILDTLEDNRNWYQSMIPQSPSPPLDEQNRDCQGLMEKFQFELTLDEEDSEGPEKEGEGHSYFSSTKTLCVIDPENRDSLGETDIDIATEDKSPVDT

Target: 3',5'-cyclic-AMP phosphodiesterase 4B (Homo sapiens, UniProt Q07343)
Assay: HTRF Assay: PDE4B2 activity is detected using the LANCE Ultra cAMP homogeneous time resolved fluorescence resonance energy transfer (TR-FRET) assay from Perkin Elmer. The assay is based on the competition between the europium (Eu) chelate-labeled cAMP tracer and sample cAMP for binding sites on cAMP-specific monoclonal antibodies (mAb) labelled with the ULight¿ dye. The assay is carried out in 384-well low volume plates in a volume of 10 μl. Human recombinant PDE4B2 (80 pM) is incubated for 2 h with 3 nM cAMP in buffer containing 1×HBSS, 5 mM HEPES, 3 mM MgCl2, 0.1% BSA, pH 7.4 with or without test compounds. The enzymatic reactions are efficiently stopped by the addition of 500 μM IBMX present in the combined Stop/Detection buffer containing europium (Eu) chelate-labeled cAMP tracer and cAMP-specific monoclonal antibodies (mAb) labelled with the ULight¿ dye. […] IC50 values are determined from competition curves using a non-linear curve fitting program.

IC50: < 1 nM
SMILES: CN1CCC(COC(=O)C(NCc2ccc(C(=O)O[C@@H](Cc3c(Cl)c[n+]([O-])cc3Cl)c3ccc(OC(F)F)c(OCC4CC4)c3)s2)c2ccccc2)CC1 (stereo partly specified)
